Experimental data published in patent US20250188060A1, “ALPHA1A-ADRENERGIC RECEPTOR AGONISTS AND METHODS OF USE” (CuraSen Therapeutics, Inc., priority 2022, published 2025).

By UniProt entry, the sequences of proteins in these tests, tags left out.
UniProt P35348, whole entry: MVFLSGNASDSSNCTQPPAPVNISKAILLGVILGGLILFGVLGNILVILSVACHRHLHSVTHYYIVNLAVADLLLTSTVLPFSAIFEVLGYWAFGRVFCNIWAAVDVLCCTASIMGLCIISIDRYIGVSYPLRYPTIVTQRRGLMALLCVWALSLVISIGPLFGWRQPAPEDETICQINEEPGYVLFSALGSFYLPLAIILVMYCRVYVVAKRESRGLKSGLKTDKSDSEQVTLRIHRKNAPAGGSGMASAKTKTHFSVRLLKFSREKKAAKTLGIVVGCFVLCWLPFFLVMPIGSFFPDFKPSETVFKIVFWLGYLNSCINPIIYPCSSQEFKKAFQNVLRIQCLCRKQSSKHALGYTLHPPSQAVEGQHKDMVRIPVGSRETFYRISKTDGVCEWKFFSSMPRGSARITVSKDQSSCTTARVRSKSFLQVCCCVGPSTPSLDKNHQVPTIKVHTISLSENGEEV

Target: α1A-ARs (Homo sapiens, UniProt P35348)
Test: Calcium flux assay (Calcium 6 dye) in cells expressing an α1-AR
Details: mean of at least three experiments; for Average Emax (% epi): relative to full agonist epinephrine

Row | SMILES | Average pEC50 | Average Emax (% epi) | Average pEC50 (tested form: HCl) | Average Emax (% epi) (tested form: HCl)
1 | CCc1nn(CC2=NCCN2)c2c(Cl)cccc12 | B (B = 8.00-6.01) | B (B = 21-60%) | – | –
2 | CC(C)c1ccc(Cl)c2c1ccn2CC1=NCCN1 | – | – | B (B = 8.00-6.01) | B (B = 21-60%)
3 | Clc1nn(CC2=NCCN2)c2c(-c3cccnc3)cccc12 | B (B = 8.00-6.01) | A (A > 61%) | – | –
4 | Clc1cccc2c(C3CC3)cn(CC3=NCCN3)c12 [Compound 3] | B (B = 8.00-6.01) | A (A > 61%) | – | –
5 | Clc1nn(CC2=NCCN2)c2c(-c3ccncc3)cccc12 | B (B = 8.00-6.01) | A (A > 61%) | – | –
